Values quoted from earlier work in patent publication US4916151A, “Method of treating parkinson's syndrome” (Merrell Dow Pharmaceuticals Inc., priority 1989, dated 1990).

Tested on: MAO
Settings: literature; selectivity lost as dosage is increased

C#CCN(C)CCCOc1ccc(Cl)cc1Cl [clorgyline]
preferential inhibition of MAO-A or MAO-B: MAO-A is preferentially inhibited
